Test results published in PubChem BioAssay (Tox21).
Values joined by “and” are separate entries in the source; they are usually repeats but may differ in a detail not shown here. Identical values can stand only once. This is a selection; strong and weak results do not stand in their true shares. Inconclusive results are not listed. Active and inactive are the calls of the source. Calls come from the whole dose curve.

Protein sequences, listed by entry. Tags and fused reporters are not part of them.
UniProt P28223, whole entry, looked up: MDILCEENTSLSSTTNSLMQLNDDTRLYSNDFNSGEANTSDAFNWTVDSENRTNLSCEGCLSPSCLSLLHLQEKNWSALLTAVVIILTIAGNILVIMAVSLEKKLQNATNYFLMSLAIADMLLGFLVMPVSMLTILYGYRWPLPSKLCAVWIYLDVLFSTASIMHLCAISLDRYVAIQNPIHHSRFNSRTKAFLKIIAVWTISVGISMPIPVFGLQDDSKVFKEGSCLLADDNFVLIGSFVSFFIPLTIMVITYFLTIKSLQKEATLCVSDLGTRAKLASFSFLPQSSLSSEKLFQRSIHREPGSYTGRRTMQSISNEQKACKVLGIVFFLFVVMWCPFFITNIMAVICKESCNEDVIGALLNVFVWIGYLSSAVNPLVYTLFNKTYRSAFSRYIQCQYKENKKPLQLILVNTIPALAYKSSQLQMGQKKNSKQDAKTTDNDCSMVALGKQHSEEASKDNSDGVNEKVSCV

target: 5-hydroxytryptamine receptor 2A (Homo sapiens) (UniProt P28223); experiment: 5-hydroxytryptamine receptor 2A (HTR2A) small molecule antagonists, cell-based qHTS assay (AID 1963586); details: HTR2A-CHO cells, DOI-induced calcium flux, fluorescence; at 61.5 µM (top of the series) unless noted; note: nearly all actives have a fitted effect of over 45% in size
From the text: National Center for Advancing Translational Sciences [NCATS]
Division of Preclinical Innovation [DPI]
U.S. Environmental Protection Agency [EPA]
National Institutes of Environmental Health Sciences [NIEHS]
National Toxicology Program [NTP]
U.S. Food and Drug Administration [FDA]
The HTR2A receptor is a subtype of the 5-HT2 receptor that belongs to the serotonin receptor family and is a G protein-coupled receptor (GPCR). The HTR2A-CHO cell line stably expressing human 5-hydroxytryptamine receptor 2A (HTR2A) can be used for screening antagonists of interactions between 5-HT2 and its ligands. The HTR2A-CHO calcium flux assay is a homogeneous fluorescence-based assay for detecting the intracellular calcium level using FDSS kinetic plate reader system.
Tox21 Assay Protocol Summary:
HTR2A-CHO cells were dispensed at 2000 cells/3uL/well in 1536-well black-clear bottom plates using a Multidrop Dispenser. After the assay plates were incubated at a 37 C/5% CO2 incubator for 18 h, 3 uL of Dye Loading Buffer was transferred to the assay plate by a Flying Reagent Dispenser. The assay plates were incubated at 37 C for 1h. For antagonist mode, 23 nL of compounds dissolved in DMSO, positive controls or DMSO only was transferred to the assay plate by a pin tool. After 5 min incubation at room temperature, 1.5 uL of 4-Iodo-2,5-dimethoxy-alpha-methylbenzeneethanamine hydrochloride (DOI) at 4nM was added to each well. The fluorescence intensity in the plates was measured using FDSS 7000EX kinetic plate reader for 3 min at 1 sec intervals.
% is set by controls: 0 for no effect and ±100 for the full control effect.

Question: `Cc1cc([N+](=O)[O-])cc([N+](=O)[O-])c1O` was tested. Which activity, negative = inhibition did it give?
Answer: inactive: 6.34%

Question: Which activity, negative = inhibition does the source give for `O=C(Cl)OCCOC(=O)Cl` here?
Answer: inactive: -3.4%

Question: How did the activity, negative = inhibition turn out when `O=[N+]([O-])c1ccc([N+](=O)[O-])cc1` was run?
Answer: inactive: -10.6%

Question: How did the activity, negative = inhibition turn out when `CCCCOP(OCCCC)OCCCC` was run?
Answer: inactive: -1.78%

Question: For `O=[As]c1ccccc1` (centres undefined), which activity, negative = inhibition is on record?
Answer: inactive: 0.956%

Question: `O=[N+]([O-])c1ccc(S(=O)(=O)O)c([N+](=O)[O-])c1` was tested. Which activity, negative = inhibition did it give?
Answer: inactive: 25.2%

Question: How did the activity, negative = inhibition turn out when `O=C1C2CC=CCC2C(=O)N1SC(Cl)(Cl)C(Cl)Cl` (centres undefined) was run?
Answer: inactive: -33.7% and inactive: -3.23%

Question: For `NC(=O)Nc1ccc([As](=O)(O)O)cc1`, which activity, negative = inhibition is on record?
Answer: inactive: -13.1%

Question: `CC(C)OP(=S)(OC(C)C)SCCNS(=O)(=O)c1ccccc1` was tested. Which activity, negative = inhibition did it give?
Answer: inactive: 14.6%

Question: With `O=P(Cl)(Cl)c1ccccc1` as the compound, how does the activity, negative = inhibition read?
Answer: inactive: 8.86%

Question: `O=P(Cl)(Oc1ccccc1)Oc1ccccc1` was tested. Which activity, negative = inhibition did it give?
Answer: inactive: -8.36%

Question: `O=C(Cl)Oc1ccccc1` was tested. Which activity, negative = inhibition did it give?
Answer: inactive: 2.42%

Question: `CC(C)CCCCCCCOP(OCCCCCCCC(C)C)Oc1ccccc1` was tested. Which activity, negative = inhibition did it give?
Answer: inactive: 13.8%

Question: With `CCCCCCCCCCCCCC[P+](CCCCCC)(CCCCCC)CCCCCC` as the compound, how does the activity, negative = inhibition read?
Answer: inactive: 21.3%

Question: Which activity, negative = inhibition does the source give for `CCCCO[P+](=O)OCCCC` here?
Answer: inactive: 2.96% and inactive: -0.588%

Question: Which activity, negative = inhibition does the source give for `Cc1cc([N+](=O)[O-])c(O)c([N+](=O)[O-])c1` here?
Answer: inactive: -19.3%

Question: Which activity, negative = inhibition does the source give for `COC(=O)Cl` here?
Answer: inactive: 0.0561%

Question: For `O=[p+]1oc2ccccc2c2ccccc21` (centres undefined), which activity, negative = inhibition is on record?
Answer: inactive: 25.1%

Question: `N#CSc1ccc([N+](=O)[O-])cc1[N+](=O)[O-]` was tested. Which activity, negative = inhibition did it give?
Answer: inactive: 0.82%

Question: `CCC(C)(OOC(C)(C)C)OOC(C)(C)C` was tested. Which activity, negative = inhibition did it give?
Answer: inactive: 3.58% [at 12.7 µM]

Question: For `CCCCC(CC)CO[P+](=O)OCC(CC)CCCC` (centres undefined), which activity, negative = inhibition is on record?
Answer: inactive: 1.78%

Question: `COP(=S)(Cl)OC` was tested. Which activity, negative = inhibition did it give?
Answer: inactive: -2%

Question: For `CN(C(=O)Cc1ccccc1)[C@H]1CC[C@@]2(CCCO2)C[C@@H]1N1CCCC1`, which activity, negative = inhibition is on record?
Answer: inactive: -1.61% [at 28.5 µM]

Question: Which activity, negative = inhibition does the source give for `CN(C(=O)Cc1cccc2occc12)[C@H]1CC[C@@]2(CCCO2)C[C@@H]1N1CCCC1` here?
Answer: inactive: 20.2%

Question: `O=[P+](Oc1ccccc1)Oc1ccccc1` was tested. Which activity, negative = inhibition did it give?
Answer: inactive: -39.3%

Question: For `CCOP(=S)(CC)Sc1ccccc1` (centres undefined), which activity, negative = inhibition is on record?
Answer: inactive: -3.28%

Question: How did the activity, negative = inhibition turn out when `ClP(Cl)c1ccccc1` was run?
Answer: inactive: 3.97%

Question: How did the activity, negative = inhibition turn out when `CCOC(=O)Cl` was run?
Answer: inactive: -2.11%

Question: How did the activity, negative = inhibition turn out when `CN(N=O)C(=N)N[N+](=O)[O-]` was run?
Answer: inactive: 81.7%
